Experimental data: ChEMBL document CHEMBL1154816, “Potent and selective neuronal nitric oxide synthase inhibitors with improved cellular permeability” (Bioorg Med Chem Lett, 2010)

Assays:
[1] = Selectivity ratio of Ki for bovine recombinant eNOS to Ki for rat recombinant nNOS
[2] = Selectivity ratio of Ki for mouse recombinant iNOS to Ki for rat recombinant nNOS

Ratio Ki [1]: 1000 | Ratio Ki [2]: 360
SMILES: Cc1cc(N)nc(CC2CNCC2OCCNCC(F)c2cccc(F)c2)c1 (racemic)
